Data taken from PubChem BioAssay AID1325 (NMMLSC, 2008).
This is a selection; strong and weak results do not stand in their true shares. Calls of active or inactive are those of the source.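 Rule for the calls: active = inhibition above 80%; inactive = the rest.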

The chains behind the UniProt entries cited, without tags or fusion partners. Where a name states a change or a piece, a line headed by the entry shows the natural chain unless it says otherwise.
UniProt Q9UNQ0: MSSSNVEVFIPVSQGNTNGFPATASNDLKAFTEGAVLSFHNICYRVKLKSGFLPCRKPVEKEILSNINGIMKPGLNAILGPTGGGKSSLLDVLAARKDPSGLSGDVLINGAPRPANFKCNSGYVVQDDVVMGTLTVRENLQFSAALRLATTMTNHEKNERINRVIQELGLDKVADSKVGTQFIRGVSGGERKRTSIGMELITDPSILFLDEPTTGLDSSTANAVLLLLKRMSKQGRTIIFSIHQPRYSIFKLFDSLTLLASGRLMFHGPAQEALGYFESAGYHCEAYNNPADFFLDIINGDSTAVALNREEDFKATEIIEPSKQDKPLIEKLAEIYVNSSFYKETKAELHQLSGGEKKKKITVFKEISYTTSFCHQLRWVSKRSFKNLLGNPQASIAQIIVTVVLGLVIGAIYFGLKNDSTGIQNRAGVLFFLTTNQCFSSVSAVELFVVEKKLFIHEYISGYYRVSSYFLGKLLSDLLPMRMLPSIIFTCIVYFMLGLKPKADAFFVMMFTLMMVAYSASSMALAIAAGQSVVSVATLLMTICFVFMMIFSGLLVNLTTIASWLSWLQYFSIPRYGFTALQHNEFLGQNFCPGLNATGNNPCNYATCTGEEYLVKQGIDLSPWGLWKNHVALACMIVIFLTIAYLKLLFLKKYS

What follows are molecules tested against Broad substrate specificity ATP-binding cassette transporter ABCG2 (Homo sapiens) (UniProt Q9UNQ0) (assay: ABCG2 efflux pump inhibitors, primary screen, multiplex with ABCB1, IgMXP3 cells, flow cytometry (AID 1325;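 note: 0% = DMSO and 100% = nicardipine control wells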)). Details: JC-1 efflux, at 6.6 µM, stronger effect = higher value.

Row | SMILES | inhibition
1 | Cc1ccc2nc3c(c(C)c2c1)CC(C(Cl)Cl)S3 (centres undefined) | inactive: 2.71%
2 | CC(C)NC(=O)NP(=O)(Oc1ccccc1)Oc1ccccc1 | inactive: -3.34%
3 | CCN(CC)C(=S)SC(NC=O)C(Cl)(Cl)Cl (centres undefined) | inactive: 1.19%
4 | O=[N+]([O-])c1cc([N+](=O)[O-])c(-c2ccn[nH]2)s1 | inactive: 7.28%
5 | ClCCSc1nnc(-c2cccnc2)o1 | inactive: 1.97%
6 | COc1ccc2nc(NP(=O)(c3ccccc3)c3ccccc3)sc2c1 | inactive: 2.75%
7 | O=C(OC1CN2CCC1CC2)C12CC3CC(CC(C3)C1)C2 (centres undefined) | inactive: 0.16%
8 | Cc1cc(=O)[nH]c(N[N+](=O)[O-])n1 | inactive: 0.16%
9 | Cc1c2c(nc3ccccc13)SC(C(Cl)Cl)C2 (centres undefined) | inactive: 8.63%
10 | COc1ccc(N/C(=N/P(=O)(N2CCOCC2)N2CCOCC2)N2CCOCC2)cc1 | inactive: 0.97%
11 | O=C(COc1ccccc1)OC1CN2CCC1CC2 (centres undefined) | inactive: 1.98%
12 | COP1(=S)c2c(C)nn(CCC#N)c2N=C(c2ccc(F)cc2)N1C (centres undefined) | inactive: 8.75%
13 | CCC(C)N(CC(C)C)C(=S)SC(NC(C)=O)C(Cl)(Cl)Cl (centres undefined) | inactive: 1.72%
14 | Cc1cc(SC(NC(=O)c2ccccc2)C(Cl)(Cl)Cl)nc(C(C)C)n1 (centres undefined) | inactive: -2.52%
15 | Cc1cc(SC(NC=O)C(Cl)(Cl)Cl)ncn1 (centres undefined) | inactive: 6.73%
16 | O=P(Nc1ccccn1)(c1cccc2ccccc12)c1cccc2ccccc12 | inactive: -0.68%
17 | CN(C)C1(CNC(=O)c2ccc(S(C)(=O)=O)cc2)CCCCC1 | inactive: 2.53%
18 | Cc1nn(-c2ccccc2)c2c1P(=O)(N1CCOCC1)N(C)C(c1ccccc1)=N2 (centres undefined) | inactive: 1.1%
19 | CC1CCC(C(C)C)C(OP(=O)(Nc2ccccn2)c2ccccc2)C1 (centres undefined) | inactive: 3.14%
20 | Cc1ccc(OCC(=O)OC2CN3CCC2CC3)cc1 (centres undefined) | inactive: -0.31%
21 | O=P1(Nc2ccc(Br)cn2)COc2ccccc2OC1 | inactive: 0.52%
22 | O=P1(Nc2ncccn2)COc2ccccc2OC1 | inactive: 1.54%
23 | Clc1n[nH]nc1-c1nn[nH][15n]1 | inactive: -5.45%
24 | O=P1(Nc2ccccn2)COc2ccccc2OC1 | inactive: 9.57%
25 | CN(C(=O)Cc1ccc(Cl)c(Cl)c1)[C@@H]1CCCC[C@H]1N1CCCC1 | inactive: -1.6%
26 | CC(C)/C=N\N=C(\N)N[N+](=O)[O-] | inactive: -1.19%
27 | Cc1cccc(OCC(=O)OC2CN3CCC2CC3)c1 (centres undefined) | inactive: -2.32%
28 | COc1cc(C(=O)NCC2(N3CCOCC3)CCCCC2)cc(Cl)c1OC(C)C | inactive: 3.98%
29 | COc1cc(C2NCCC3(OCCO3)C2(C)C)cc(OC)c1OC (centres undefined) | inactive: 70%
